Values quoted from earlier work as cited in publication PMC9418147, “Identification and structure-based drug design of cell-active inhibitors of interleukin 17A at a novel C-terminal site” (Scientific Reports, 2022).

Assays:
IL17A signaling in cells = system: IL17A signaling in cells; design: method as in PMID 27184415; conditions: read-out: IC50 disrupting cell signaling; cited from earlier work
IL17A = molecular target: IL17A; design: method as in PMID 27184415; conditions: binds N-terminus of IL17A; cited from earlier work

**Q.** With CC[C@H](C)[C@H](N)C(=O)N[C@@H](Cc1c[nH]cn1)C(=O)N[C@H](C(=O)N[C@H](C(=O)N[C@H](C(=O)N1CCC[C@H]1C(=O)N[C@@H](C)C(=O)N[C@@H](CC(=O)O)C(=O)N[C@@H](CC(C)C)C(=O)N[C@@H](Cc1c[nH]c2ccccc12)C(=O)N[C@@H](CC(=O)O)C(=O)N[C@@H](Cc1c[nH]c2ccccc12)C(=O)N[C@H](C(=O)N[C@@H](CC(N)=O)C(=O)N[C@@H](CCCCN)C(=O)O)[C@@H](C)CC)[C@@H](C)CC)[C@@H](C)O)C(C)C [Cmpd 3] as the compound, how does the IC50 (IL17A signaling in cells) read?
**A.** The IC50 was ~150 nM.

**Q.** And the Kd (IL17A)?
**A.** Its Kd is 1 nM.
